{"source": "patent US12245576B2", "about": "“Method for genetic manipulation of sap-feeding insects” (The Regents of the University of California, priority 2018, dated 2025)", "key": {"Brassica leaf-discs": {"test_system": "Brassica leaf-discs", "experiment": "Phytohormone treatment, calli and root production from Brassica leaf-discs", "protocol": "(§1) • 1. Leaf-discs (2.7-cm in diameter) were cut from Brassica leaves (Leaf #2, leaf #3) or eggplant leaves (see above). • 2. Three leaf-discs were placed on a specific media (see Tables 6 and 7 below), covered with a mesh lid, sealed with parafilm, and incubated agar side up. • 3. The discs were placed in Incubator B (higher humidity, higher light). Plates were covered with two fabric screens. • 4. Discs were assessed daily for leaf-disc growth, disc color, fungal contamination of agar or disc, agar depth (to determine date of transfer), and presence of calli or roots (number of root sites and number of roots/site). • 5. Discs were transferred to fresh media as needed (usually 7-8 d)."}, "eggplant leaf-discs": {"test_system": "eggplant leaf-discs", "experiment": "Phytohormone treatment, root production from eggplant leaf-discs", "conditions": "IBA 0.1, 1.0 and 10 mg/L in GB+GBV", "protocol": "as §1"}}}
{"substance": "Indole butyric acid", "values": [{"measurement": "time on IBA plates that may be sufficient to accelerate root production", "setting": "Brassica leaf-discs; 10 mg/L IBA plates", "value": 1, "unit": "days"}, {"measurement": "effect on production of roots from Brassica leaf-discs", "setting": "Brassica leaf-discs; GB+GBV with IBA 0.1-10 mg/L vs 0 (control)", "value": "enhanced and accelerated the production of roots"}, {"measurement": "effect on root production in eggplant", "setting": "eggplant leaf-discs", "value": "did not significantly enhance or accelerate root production"}]}
